Measurements taken from article PMC9412056 (The Journal of Veterinary Medical Science, 2022).

Tests used:
Assay type in all cases: cell-based
[1] = tested on: canine DCs; assay: FCM: binding of rhCTLA-4 to canine DCs; settings: 30 nM rhCTLA-4, FITC-anti-hIgG-Fc Ab
[2] = tested on: canine T cells with allogeneic canine DCs; assay: Canine mixed lymphocyte reaction, [3H]-thymidine incorporation; settings: rhCTLA-4, canine MLR
[3] = tested on: canine T cell fraction; assay: FCM: binding of rhCTLA-4 to canine T cell fraction; settings: rhCTLA-4 Ig, various concentrations; FITC-anti-hIgG-Fc Ab; n = 3

## rhCTLA-4: chimeric protein composed of the extracellular domain of rhCTLA-4 and a constant region of hIgG
[1]
  binding to canine DCs (fluorescence intensity): observed through an increase in fluorescence intensity
[2]
  interaction between canine DCs and canine T cells: inhibits the interaction between canine DCs and canine T cells
[3]
  binding to canine T cell fraction (fluorescence intensity): that of the T cell fraction did not
